Results on one compound are retold here after publication PMC6287304 (Antiviral Chemistry & Chemotherapy, 2018).

The experiment deals with T1, VZV DNA pol (Varicella-zoster virus, UniProt P09252).
T1 sequence (P09252 1-1194): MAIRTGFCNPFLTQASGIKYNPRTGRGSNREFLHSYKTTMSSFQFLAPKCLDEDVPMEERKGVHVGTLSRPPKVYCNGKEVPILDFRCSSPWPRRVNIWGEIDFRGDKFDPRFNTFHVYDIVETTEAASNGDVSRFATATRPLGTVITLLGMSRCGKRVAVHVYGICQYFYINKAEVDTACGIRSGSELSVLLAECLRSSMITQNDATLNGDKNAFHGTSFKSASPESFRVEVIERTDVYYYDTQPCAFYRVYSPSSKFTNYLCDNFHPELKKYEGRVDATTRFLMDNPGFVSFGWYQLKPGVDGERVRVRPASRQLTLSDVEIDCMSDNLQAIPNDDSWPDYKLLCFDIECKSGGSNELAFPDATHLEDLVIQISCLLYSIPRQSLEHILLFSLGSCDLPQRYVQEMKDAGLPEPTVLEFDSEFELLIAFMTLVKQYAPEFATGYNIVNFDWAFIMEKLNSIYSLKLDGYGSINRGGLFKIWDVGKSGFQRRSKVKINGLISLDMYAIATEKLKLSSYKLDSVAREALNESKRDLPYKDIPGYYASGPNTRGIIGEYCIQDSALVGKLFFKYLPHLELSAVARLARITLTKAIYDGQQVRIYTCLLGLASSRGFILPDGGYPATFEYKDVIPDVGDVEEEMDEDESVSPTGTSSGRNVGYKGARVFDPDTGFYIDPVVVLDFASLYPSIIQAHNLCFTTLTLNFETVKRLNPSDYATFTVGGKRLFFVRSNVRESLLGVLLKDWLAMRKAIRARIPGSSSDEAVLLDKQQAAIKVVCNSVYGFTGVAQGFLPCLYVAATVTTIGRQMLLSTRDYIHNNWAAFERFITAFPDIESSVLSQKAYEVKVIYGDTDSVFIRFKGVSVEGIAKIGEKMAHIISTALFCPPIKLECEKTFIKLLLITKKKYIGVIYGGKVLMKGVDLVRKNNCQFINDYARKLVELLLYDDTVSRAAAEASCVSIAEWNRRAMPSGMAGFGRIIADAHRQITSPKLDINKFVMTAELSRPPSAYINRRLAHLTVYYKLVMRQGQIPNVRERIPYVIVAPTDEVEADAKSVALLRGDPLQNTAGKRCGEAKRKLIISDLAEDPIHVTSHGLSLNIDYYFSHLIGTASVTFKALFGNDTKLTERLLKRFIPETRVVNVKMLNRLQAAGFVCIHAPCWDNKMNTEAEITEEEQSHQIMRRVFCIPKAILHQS
As to the kind of experiment: DNA polymerase inhibition, VZV DNA pol. The class given is biochemical. Conditions: read-out: IC50 VZV DNA pol dTTP; calf thymus DNA, radiolabeled [3H]dTTP.

SMILES strings stand for the structures.

For the compound `O=C(O)P(=O)(O)O` [PFA pyrophosphate], the IC50 is 0.18 ± 0.01 µM.

What is called IC50 is the concentration that inhibits the measured activity by half.
